Assay results from ChEMBL document CHEMBL1138512, “A class of 2,4-bisanilinopyrimidine Aurora A inhibitors with unusually high selectivity against Aurora B” (J Med Chem, 2009).

Experiment: Selectivity ratio of IC50 for Aurora B to IC50 for Aurora A

Compound `O=C(Nc1ccccc1Cl)c1ccc(Nc2nc(Nc3ccc(O)cc3)ncc2F)cc1` has a Ratio IC50 of 190 µM.
